Values joined by “and” are separate entries in the source; they are usually repeats but may differ in a detail not shown here. Equal entries are not always repeated. The entries are a selection whose mix differs from that of the whole data set. Some tests of the compounds listed are not included; inactive here does not mean inactive elsewhere.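 Single-concentration screen, 48 h exposure, 96-well plates. Endpoint: percent growth. Below 10 = active.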 Active and inactive are the calls of the source.
Tests used:
Assay in all cases: NCI-60 one-dose screen, 48 h (100 = growth as untreated, 0 = no growth, -100 = all killed)
Details in all cases: 10 µM
NCI-H23 lung = tested on: NCI-H23 lung
NCI-H226 lung = tested on: NCI-H226 lung
NCI-H322M lung = tested on: NCI-H322M lung
HOP-62 NSCLC = tested on: HOP-62 NSCLC
NCI-H460 lung = tested on: NCI-H460 lung
HOP-92 NSCLC = tested on: HOP-92 NSCLC
NCI-H522 lung = tested on: NCI-H522 lung
A549/ATCC NSCLC = tested on: A549/ATCC NSCLC
786-0 renal = tested on: 786-0 renal
COLO 205 colon = tested on: COLO 205 colon
DU-145 prostate = tested on: DU-145 prostate
K-562 leukemia = tested on: K-562 leukemia
MDA-MB-231 breast = tested on: MDA-MB-231 breast
RXF 393 renal = tested on: RXF 393 renal
SF-268 CNS = tested on: SF-268 CNS
SF-295 CNS = tested on: SF-295 CNS
SF-539 CNS = tested on: SF-539 CNS
UACC-257 melanoma = tested on: UACC-257 melanoma
M14 melanoma = tested on: M14 melanoma
MALME-3M melanoma = tested on: MALME-3M melanoma

Measured: growth

CC(=O)CI
inactive: NCI-H23 lung 104% | NCI-H226 lung 96.2% | NCI-H322M lung 107% | HOP-62 NSCLC 106% | NCI-H460 lung 109% | HOP-92 NSCLC 128% | NCI-H522 lung 100% | A549/ATCC NSCLC 101% | 786-0 renal 104% | COLO 205 colon 112% | DU-145 prostate 113% | K-562 leukemia 114% | MDA-MB-231 breast 105% | RXF 393 renal 104% | SF-268 CNS 104% | SF-295 CNS 99.7% | SF-539 CNS 102% | UACC-257 melanoma 102% | M14 melanoma 94.5%

ClCCN(CCCl)Cc1ccc(Cl)c(Cl)c1
inactive: NCI-H23 lung 95.2% | NCI-H226 lung 102% | NCI-H322M lung 97.1% | HOP-62 NSCLC 110% | NCI-H460 lung 114% | HOP-92 NSCLC 97% | NCI-H522 lung 93.2% | A549/ATCC NSCLC 99.6% | 786-0 renal 98.5% | COLO 205 colon 113% | DU-145 prostate 105% | K-562 leukemia 87.3% | MALME-3M melanoma 99.1% | MDA-MB-231 breast 108% | RXF 393 renal 104% | SF-268 CNS 99.3% | SF-295 CNS 96.8% | SF-539 CNS 101% | UACC-257 melanoma 95.2% | M14 melanoma 97.4%

N#CC(C#N)=Cc1ccc(Br)cc1
inactive: NCI-H23 lung 101% and 99.5% | NCI-H226 lung 99.7% and 96% | NCI-H322M lung 107% and 100% | HOP-62 NSCLC 108% | NCI-H460 lung 106% and 108% | HOP-92 NSCLC 109% and 97.6% | NCI-H522 lung 93.2% and 96.7% | A549/ATCC NSCLC 105% and 101% | 786-0 renal 105% | COLO 205 colon 112% and 111% | DU-145 prostate 106% and 103% | K-562 leukemia 94.4% and 93.5% | MALME-3M melanoma 112% and 98.8% | MDA-MB-231 breast 105% and 106% | RXF 393 renal 107% and 101% | SF-268 CNS 98.6% and 109% | SF-295 CNS 105% and 109% | SF-539 CNS 112% and 118% | UACC-257 melanoma 101% and 103% | M14 melanoma 99.1% and 105%

COc1ccc(N=C=S)cc1CN(CCCl)CCCl
inactive: NCI-H23 lung 66.5% | NCI-H226 lung 71.2% | NCI-H322M lung 99.8% | HOP-62 NSCLC 54.9% | NCI-H460 lung 29.1% | HOP-92 NSCLC 67.1% | NCI-H522 lung 30.2% | A549/ATCC NSCLC 65.7% | 786-0 renal 55.4% | COLO 205 colon 61.5% | DU-145 prostate 69.7% | K-562 leukemia 65.6% | MALME-3M melanoma 93.4% | MDA-MB-231 breast 87.8% | RXF 393 renal 83% | SF-268 CNS 66.6% | SF-295 CNS 85.1% | SF-539 CNS 74.4% | UACC-257 melanoma 78.7% | M14 melanoma 65.9%

CCOc1ccc([N+](=O)[O-])cc1CN(CCCl)CCCl
inactive: NCI-H23 lung 93.2% | NCI-H226 lung 99.4% | NCI-H322M lung 98.7% | HOP-62 NSCLC 108% | NCI-H460 lung 105% | HOP-92 NSCLC 87.2% | NCI-H522 lung 72.7% | A549/ATCC NSCLC 96.3% | 786-0 renal 89.9% | COLO 205 colon 108% | DU-145 prostate 104% | K-562 leukemia 91.5% | MALME-3M melanoma 91.8% | MDA-MB-231 breast 93.2% | RXF 393 renal 104% | SF-268 CNS 98.9% | SF-295 CNS 101% | SF-539 CNS 95.7% | M14 melanoma 100%

ClCCN(CCCl)C1c2ccccc2-c2ccccc21
inactive: NCI-H23 lung 93.2% | NCI-H226 lung 89.1% | NCI-H322M lung 85.1% | HOP-62 NSCLC 89.4% | NCI-H460 lung 77.2% | HOP-92 NSCLC 85.1% | NCI-H522 lung 44.3% | A549/ATCC NSCLC 80.9% | 786-0 renal 93.7% | COLO 205 colon 87.2% | DU-145 prostate 97.5% | K-562 leukemia 79.5% | MALME-3M melanoma 101% | MDA-MB-231 breast 98.9% | RXF 393 renal 103% | SF-268 CNS 92.9% | SF-295 CNS 91.9% | SF-539 CNS 90.3% | UACC-257 melanoma 88.1% | M14 melanoma 100%

COCc1c(CN(CCCl)CCCl)cnc(C)c1O
inactive: NCI-H23 lung 102% | NCI-H226 lung 87.1% | NCI-H322M lung 105% | NCI-H460 lung 96.6% | HOP-92 NSCLC 84.3% | NCI-H522 lung 99.5% | A549/ATCC NSCLC 112% | 786-0 renal 105% | COLO 205 colon 103% | DU-145 prostate 110% | K-562 leukemia 102% | MALME-3M melanoma 98.1% | MDA-MB-231 breast 109% | RXF 393 renal 99.1% | SF-268 CNS 102% | SF-295 CNS 107% | SF-539 CNS 89.3% | UACC-257 melanoma 107% | M14 melanoma 96.4%

CN(CCBr)CCBr
inactive: NCI-H23 lung 105% | NCI-H226 lung 103% | NCI-H322M lung 101% | HOP-62 NSCLC 108% | NCI-H460 lung 77.6% | HOP-92 NSCLC 69.6% | NCI-H522 lung 76.9% | A549/ATCC NSCLC 89.6% | 786-0 renal 98.4% | COLO 205 colon 87.3% | DU-145 prostate 102% | K-562 leukemia 104% | MALME-3M melanoma 118% | MDA-MB-231 breast 111% | RXF 393 renal 103% | SF-268 CNS 102% | SF-295 CNS 99.8% | SF-539 CNS 93.9% | UACC-257 melanoma 97% | M14 melanoma 101%

COc1ccc([N+](=O)[O-])cc1CN(CCCl)CCCl
inactive: NCI-H23 lung 104% | NCI-H226 lung 94.5% | NCI-H322M lung 102% | HOP-62 NSCLC 113% | NCI-H460 lung 86.5% | HOP-92 NSCLC 109% | NCI-H522 lung 90.8% | A549/ATCC NSCLC 88.1% | 786-0 renal 101% | COLO 205 colon 98.4% | DU-145 prostate 109% | K-562 leukemia 109% | MALME-3M melanoma 109% | MDA-MB-231 breast 95.8% | RXF 393 renal 109% | SF-268 CNS 101% | SF-295 CNS 109% | SF-539 CNS 94.9% | M14 melanoma 107%

Fc1cccc(CN(CCCl)CCCl)c1
inactive: NCI-H23 lung 98.5% | NCI-H226 lung 108% | NCI-H322M lung 108% | HOP-62 NSCLC 97.5% | NCI-H460 lung 66.6% | HOP-92 NSCLC 77.9% | NCI-H522 lung 79% | A549/ATCC NSCLC 89.4% | 786-0 renal 97.9% | COLO 205 colon 91% | DU-145 prostate 101% | K-562 leukemia 99% | MALME-3M melanoma 85.8% | MDA-MB-231 breast 111% | RXF 393 renal 105% | SF-268 CNS 95.4% | SF-295 CNS 95.5% | SF-539 CNS 91.7% | UACC-257 melanoma 95.3% | M14 melanoma 88%

BrCCN(CCBr)Cc1ccccc1
inactive: NCI-H23 lung 104% | NCI-H226 lung 105% | NCI-H322M lung 112% | HOP-62 NSCLC 109% | NCI-H460 lung 101% | HOP-92 NSCLC 86.8% | NCI-H522 lung 96.7% | A549/ATCC NSCLC 113% | 786-0 renal 113% | COLO 205 colon 117% | DU-145 prostate 113% | K-562 leukemia 105% | MALME-3M melanoma 112% | MDA-MB-231 breast 119% | RXF 393 renal 108% | SF-268 CNS 97.1% | SF-295 CNS 99.4% | SF-539 CNS 98% | UACC-257 melanoma 112% | M14 melanoma 112%

O=C(OCCN1CCCC1)C(O)(c1ccccc1)c1ccccc1
inactive: NCI-H23 lung 105% | NCI-H226 lung 109% | HOP-62 NSCLC 96% | NCI-H460 lung 110% | 786-0 renal 106% | COLO 205 colon 105% | DU-145 prostate 116% | K-562 leukemia 129% | MDA-MB-231 breast 103% | RXF 393 renal 122% | SF-268 CNS 99.1% | SF-295 CNS 102% | SF-539 CNS 105% | M14 melanoma 96.1%
